Experimental data reported in ChEMBL document CHEMBL1151856, “Novel, potent, and radio-iodinatable somatostatin receptor 1 (sst1) selective analogues” (J Med Chem, 2009).

Amino acid sequences for entries named in this document (tags omitted). A change or cut given only in a name is not applied to a line headed by its entry.
UniProt P30872: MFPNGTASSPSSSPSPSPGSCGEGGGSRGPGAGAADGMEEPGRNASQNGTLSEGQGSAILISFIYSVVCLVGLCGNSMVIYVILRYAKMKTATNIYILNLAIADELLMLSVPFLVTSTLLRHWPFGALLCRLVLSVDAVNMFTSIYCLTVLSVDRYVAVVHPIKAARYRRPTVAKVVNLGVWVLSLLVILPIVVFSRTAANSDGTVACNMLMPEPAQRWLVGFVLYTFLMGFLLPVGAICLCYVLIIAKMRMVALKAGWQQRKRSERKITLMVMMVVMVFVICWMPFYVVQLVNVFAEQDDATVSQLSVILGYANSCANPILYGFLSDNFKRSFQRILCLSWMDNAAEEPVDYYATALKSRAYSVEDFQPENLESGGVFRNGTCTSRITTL

Experiments:
[1] = molecular target: T1, Somatostatin receptor type 1 (Homo sapiens, UniProt P30872); experiment: Agonist activity at human sst1 receptor expressed in Chinese hamster CCL39 cells by luciferase reporter gene assay relative to somatostatin-14; type: functional, cell-based
[2] = molecular target: T1, Somatostatin receptor type 1; experiment: Displacement of [125I]LTT-SRIF-28 from human sst1 receptor by autoradiography
Summary of the method: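 Competition autoradiography on 20-μm cryostat sections of membrane pellets from cells expressing each cloned receptor. Buffer was 170 mM Tris-HCl pH 8.2 with 1% BSA, bacitracin and 10 mM MgCl2. Cold washes, 1-week film exposure, image quantification against isotope standards, IC50 derived.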

| EC50 [1] [nM] | IC50 [2] [nM] | SMILES |
| --- | --- | --- |
| 33 |  | CC(C)NCc1ccc(C[C@@H]2NC(=O)[C@@H](Cc3c[nH]c4ccccc34)NC(=O)[C@H](Cc3ccccc3)NC(=O)[C@H](Cc3ccccc3)NC(=O)[C@H](CCCCN)NC(=O)[C@@H](NC(=O)[C@@H](N)Cc3ccc(O)cc3)CSSC[C@@H](C(=O)O)NC(=O)[C@H](CO)NC(=O)[C@H]([C@@H](C)O)NC(=O)[C@H](Cc3ccccc3)NC(=O)[C@H]([C@@H](C)O)NC2=O)cc1 |
| 0.37 | 0.19 | CC(C)NCc1ccc(C[C@@H]2NC(=O)[C@@H](N(C)C(=O)c3ccc4ccccc4c3)NC(=O)[C@H](Cc3ccccc3)NC(=O)[C@@H](NC(=O)[C@H](N)Cc3ccc(O)cc3)CSSC[C@@H](C(=O)N[C@H](C(N)=O)[C@@H](C)O)NC(=O)[C@H](Cc3ccccc3)NC2=O)cc1 |
|  | 97 | CC(C)NCc1ccc(C[C@@H]2NC(=O)[C@H](N(C)C(=O)c3ccc4ccccc4c3)NC(=O)[C@H](Cc3ccccc3)NC(=O)[C@@H](NC(=O)[C@H](N)Cc3ccc(O)cc3)CSSC[C@@H](C(=O)N[C@H](C(N)=O)[C@@H](C)O)NC(=O)[C@H](Cc3ccccc3)NC2=O)cc1 |
